Assay results as given in publication PMC7795171, “In Silico and In Vitro Analysis of Major Cannabis-Derived Compounds as Fatty Acid Amide Hydrolase Inhibitors” (Molecules, 2020).

By UniProt entry, the sequences of proteins in these tests, tags left out.
UniProt P97612, whole entry: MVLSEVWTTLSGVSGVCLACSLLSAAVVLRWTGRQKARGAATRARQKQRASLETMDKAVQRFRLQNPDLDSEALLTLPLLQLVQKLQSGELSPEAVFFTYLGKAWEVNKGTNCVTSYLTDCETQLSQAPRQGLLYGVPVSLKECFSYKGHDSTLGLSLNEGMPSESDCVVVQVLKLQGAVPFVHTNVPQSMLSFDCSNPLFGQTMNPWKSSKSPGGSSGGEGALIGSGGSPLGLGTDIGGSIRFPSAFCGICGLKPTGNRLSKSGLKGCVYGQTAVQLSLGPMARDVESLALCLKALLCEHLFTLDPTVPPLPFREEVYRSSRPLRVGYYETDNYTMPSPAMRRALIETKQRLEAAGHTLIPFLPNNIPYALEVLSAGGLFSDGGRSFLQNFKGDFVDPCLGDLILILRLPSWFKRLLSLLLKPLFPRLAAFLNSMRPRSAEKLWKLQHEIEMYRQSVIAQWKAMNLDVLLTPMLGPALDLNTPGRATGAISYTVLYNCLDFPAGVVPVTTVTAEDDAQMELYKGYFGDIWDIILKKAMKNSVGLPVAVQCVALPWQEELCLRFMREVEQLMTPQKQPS

Target: T1, rFAAH (Rattus norvegicus, UniProt P97612)
T1 construct: from tissue; host or cells: rat brain membranes
Assay: FAAH activity assay, rat brain membranes, [14C]AEA hydrolysis
Format: biochemical
Conditions: compound at 100 µm
Method: Rat brains were homogenized in 50 mM Tris-HCl (50 mM, pH 7.4), and were centrifuged sequentially at 800× g and 20,000× g; then, the supernatants were discharged, and rFAAH activity was tested in membrane preparations incubated with 10 µM [^14C]AEA at 37 °C for 15 min (pH = 9.0). The reaction was stopped with a 1:1 (v/v) mixture of chloroform/methanol and the release of [^14C]ethanolamine in the aqueous phase was measured as reported. Purified human FAAH was assayed in the same way as rFAAH.

For `C=C(C)[C@@H]1CCC(C)=C[C@H]1c1c(O)cc(CCCCC)cc1O` [CBD, cannabidiol, reference compound], the “% In Vitro Inhibition (At 100 µm)” value was 94%.
